Measurements taken from PubChem BioAssay AID463212 (Sanford-Burnham Center for Chemical Genomics, 2010).
Only a part is listed here, and it is no random draw. Active and inactive are the calls of the source.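 How the source made its calls: active means growth inhibition of the mutant yeast at or above 50%; inactive means the rest.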

assay: growth inhibition of tim23-1 ts yeast – luminescence, uHTS, primary screen (AID 463212);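 further: temperature-sensitive mutant grown at 25 °C; plate controls were DMSO-treated mutant yeast for no effect and medium wells lacking yeast for full effect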; details: S. cerevisiae tim23-1 growth, BacTiter-Glo luminescence, 24 h; at 20 µM; active compounds read high

SMILES	inhibition
O=[N+]([O-])c1cc([N+](=O)[O-])c(Nc2nnnn2CCO)c([N+](=O)[O-])c1	inactive: 16.9%
CC1=C2N=C(C=C3N=C(C(C)=C4[N-][C@@](C)([C@@H]5N=C1[C@](C)(CCC(=O)NC[C@@H](C)OP(=O)([O-])O[C@H]1[C@@H](O)[C@@H](n6cnc7cc(C)c(C)cc76)O[C@@H]1CO)[C@H]5CC(N)=O)[C@@](C)(CC(N)=O)[C@@H]4CCC(N)=O)[C@@](C)(CC(N)=O)[C@@H]3CCC(N)=O)C(C)(C)[C@@H]2CCC(N)=O.[C-]#N.[Co+3]	inactive: 25.3%
CCOC(=O)C(CC)C1=NC(C)(C)Cc2ccccc21.O=[N+]([O-])c1cc([N+](=O)[O-])c(O)c([N+](=O)[O-])c1 (stereo unspecified)	inactive: 10.5%
CP(=O)(Nc1ccc(SC(F)(F)F)cc1)Oc1ccccc1 (stereo unspecified)	inactive: 29.6%
CCCOc1ccc(NP(C)(=O)Oc2ccc(Cl)cc2)cc1 (stereo unspecified)	inactive: 19.2%
CN1CCCCC1COC(=O)C1(O)c2ccccc2CCc2ccccc21 (stereo unspecified)	inactive: -1.22%
COc1ccccc1OP(C)(=O)Nc1c(C)cccc1C (stereo unspecified)	inactive: -1.38%
O=[N+]([O-])c1cc([N+](=O)[O-])c(-n2nnc3ccccc32)c([N+](=O)[O-])c1	inactive: 20.9%
Cc1nc2ccc3ccccc3c2s1.O=[N+]([O-])c1cc([N+](=O)[O-])c(O)c([N+](=O)[O-])c1	inactive: 13.5%
O=[N+]([O-])c1cc([N+](=O)[O-])c(-c2cnn(-c3ccccc3)c2)c([N+](=O)[O-])c1	inactive: -73.6%
Cc1cc(C)cc(OP(C)(=O)Nc2ccc(C)cc2C)c1 (stereo unspecified)	inactive: 15.5%
CCOC(=O)c1ccc(NP(C)(=O)Oc2cc(C)cc(C)c2)cc1 (stereo unspecified)	inactive: 25.7%
COc1ccccc1OP(C)(=O)Nc1cccc(Br)c1 (stereo unspecified)	inactive: 12.5%
CP(=O)(Nc1cccc(Br)c1)Oc1ccccc1 (stereo unspecified)	inactive: 19.1%
Cc1cc(C)cc(OP(C)(=O)Nc2ccccn2)c1 (stereo unspecified)	inactive: 13.3%
Cc1ccc(C)c(NP(C)(=O)Oc2ccccc2)c1 (stereo unspecified)	inactive: -2.63%
O=C(O)c1cccc(Nc2c([N+](=O)[O-])cc([N+](=O)[O-])cc2[N+](=O)[O-])c1	inactive: 5.79%
CC1=NCCc2c1[nH]c1ccccc21.O=[N+]([O-])c1cc([N+](=O)[O-])c(O)c([N+](=O)[O-])c1	inactive: 15.5%
CC(C)(C)c1ccc(OP(C)(=O)Nc2ccc(SC(F)(F)F)cc2)cc1 (stereo unspecified)	inactive: 34.4%

SMILES	inhibition
Cc1cccc(C)c1OP(C)(N)=O (stereo unspecified)	inactive: 7.26%
O=[N+]([O-])c1cc([N+](=O)[O-])c(Nc2cccnc2)c([N+](=O)[O-])c1	inactive: 45.7%
COc1ccccc1OP(C)(=O)Nc1cc(Cl)ccc1C (stereo unspecified)	inactive: 10.3%
COc1ccc(OP(C)(=O)Nc2cccc(F)c2)cc1 (stereo unspecified)	inactive: 19.9%
Cc1cc(C)cc(OP(C)(N)=O)c1 (stereo unspecified)	inactive: 2.69%
CCOC(=O)c1ccc(NP(C)(=O)Oc2ccccc2)cc1 (stereo unspecified)	inactive: 9.37%
COc1ccccc1OP(C)(=O)Nc1ccc(C)cc1 (stereo unspecified)	inactive: 7.31%
Cc1ccc(NP(C)(=O)Oc2ccccc2)c(C)c1 (stereo unspecified)	inactive: 13.6%
CCN(CC)CCCOC(=O)C(O)(c1ccccc1)c1ccccc1	inactive: 0.484%
CCc1ccc(OP(C)(=O)N2CCN(c3ccc([N+](=O)[O-])cc3)CC2)cc1 (stereo unspecified)	inactive: 26.9%
CP(=O)(NC(=O)Nc1ccccc1)Oc1ccccc1 (stereo unspecified)	inactive: -10.2%
Cc1cc(C)cc(OP(C)(=O)Nc2ccc(SC(F)(F)F)cc2)c1 (stereo unspecified)	inactive: 31.4%
CP(=O)(Nc1ccc(SC(F)(F)F)cc1)Oc1ccc(Cl)cc1 (stereo unspecified)	inactive: 28.7%
Cc1cccc(C)c1OP(C)(=O)Nc1ccc(SC(F)(F)F)cc1 (stereo unspecified)	inactive: 36.3%
CP(=O)(Oc1ccccc1)OC(c1ccccc1)C(F)(F)F (stereo unspecified)	inactive: 14.3%
CP(=O)(Nc1ccccn1)Oc1ccc(Cl)cc1 (stereo unspecified)	inactive: 13.1%
CCOP(C)(=S)SCC(=O)NC(C)C(=O)O (stereo unspecified)	inactive: 19.3%
O=[N+]([O-])c1cc([N+](=O)[O-])c(O)c([N+](=O)[O-])c1.c1ccc(Oc2ccncc2)cc1	inactive: 1.56%
CCOC(=O)c1ccc(NP(C)(=O)Oc2ccc(OC)cc2)cc1 (stereo unspecified)	inactive: 17.7%

SMILES	inhibition
COc1ccccc1OP(C)(=O)Nc1ccccc1 (stereo unspecified)	inactive: -0.796%
CP(=O)(Nc1ccccc1Br)Oc1ccccc1 (stereo unspecified)	inactive: -4.54%
CP(=S)(Nn1cnnc1)Oc1ccccc1 (stereo unspecified)	inactive: 5.87%
CP(=O)(OC12CC3CC(CC(C3)C1)C2)OC12CC3CC(CC(C3)C1)C2	inactive: 43.9%
CCOC(=O)c1ccc(NP(C)(=O)Oc2ccc(Cl)cc2)cc1 (stereo unspecified)	inactive: 27.5%
Nc1ccc2c(ccc3cccnc32)n1.O=[N+]([O-])c1cc([N+](=O)[O-])c(O)c([N+](=O)[O-])c1	inactive: -6.07%
CP(=O)(Oc1ccccc1)N1CCOC1=O (stereo unspecified)	inactive: 14.5%
CCc1ccc(OP(C)(=O)Nc2cccnc2)cc1 (stereo unspecified)	inactive: 6.74%
COc1ccccc1OP(C)(=O)Nc1c(C)n(C)n(-c2ccccc2)c1=O (stereo unspecified)	inactive: 4.04%
O=C(OCCCN1CCCC1)C(O)(c1ccccc1)C1CCCCC1 (stereo unspecified)	inactive: -23.3%
CCN(CC)CC(O)COC(=O)C(O)(c1ccccc1)C1CCCCC1 (stereo unspecified)	inactive: 6.72%
COc1ccc(OP(C)(=O)Nc2ccc(Br)cc2)cc1 (stereo unspecified)	inactive: 14.3%
CN(C)C(=O)c1c([N+](=O)[O-])cc([N+](=O)[O-])cc1[N+](=O)[O-]	inactive: 18%
CP(=O)(Nc1ccc(Cl)cc1)Oc1ccc(F)cc1 (stereo unspecified)	inactive: 25.9%
CC(C)(C)c1ccc(OP(C)(=O)O)cc1	inactive: 18.2%
COc1ccccc1OP(C)(=O)Nc1ccccc1Br (stereo unspecified)	inactive: 10.7%
CN(C)CCOC(=O)C(O)(c1ccccc1)C1CCCC1 (stereo unspecified)	inactive: -1.43%
COc1ccccc1OP(C)(=O)Nc1ccc(Br)cc1 (stereo unspecified)	inactive: 8.86%
